{"source": "PubChem BioAssay AID1208", "about": "(EPA DSSTox, 2008)", "system": "rat chronic carcinogenicity bioassay, TD50", "experiment": "DSSTox (CPDBAS) Carcinogenic Potency Database Summary Rat Bioassay Results", "settings": "for Potency: hits give low values; for outcome: TD50_Rat_Note: no positive results", "source_text": "The Carcinogenic Potency Database (CPDB) is a unique and widely used international resource of the results of over 6500 chronic, long-term animal cancer tests on over 1500 chemical substances. The CPDB provides easy access to the bioassay literature, with qualitative and quantitative analyses of both positive and negative experiments that have been published over the past 50 years in the general literature and by the National Cancer Institute/National Toxicology Program. The CPDB standardizes the diverse literature of cancer bioassays that vary widely in protocol, histopathological examination and nomenclature, and in the published author's choices of what information to provide in their papers. Results are reported in the CPDB for tests in rats, mice, hamsters, dogs, and nonhuman primates, and are based on the most positive result among all experiments for each sex-species. The DSSTox CPDBAS (all species) file incorporates data from the CPDB Summary Tables for the full list of over 1500 chemical substances tested in at least one species. Summary bioassay results for Rat (TD50, tumor sites, male, female, both sexes) are provided in the CPDB Summary Tables and the DSSTox CPDBAS file for over 1200 chemical substances.\nTD50 is a standardized quantitative measure of carcinogenic potency (analogous to an LD50) and is reported in the CPDB Summary Table for each species. Activity Score for actives is computed by mapping of LOG10 (1/TD50_Rat_mmol) activity values spanning range [MIN, MAX] onto Integer 1-100 Activity Score range, where 100 is highest potency and 1 is lowest: Activity Score = 100 * INTEGER[(log10(1/Activity) - MIN)/(MAX - MIN)]. If activity is reported but no TD50_Rat_mmol value is computed, such as for a mixture, the Activity Score is assigned the activity value \"50\". […] Target sites are reported for each sex-species group with a positive result in the CPDB on the basis of a positive author's opinion for the particular site, using all results from both the general literature and NCI/NTP bioassays. If a chemical has two or more target sites listed, the results may be from different experiments, and a single site may be a target organ in more than one experiment, as well. Blank entry in TargetSites field indicates no results reported.", "key": {"[1]": {"settings": "TargetSites_Rat_Female: no positive results"}}, "note": "Activity calls are given as the source filed them.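 The calls were made as follows: active = at least one rat sex group has a carcinogenic potency value and tumor site recorded; inconclusive = only rat studies were judged inadequate by the national testing program; inactive = no potency or tumor site, with negative rat experiments.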", "data": [{"smiles": "COP(=O)(OC)N1CCOCC1", "values": [{"measurement": "Potency", "setting": "TD50_Rat_Note: TD50 is harmonic mean of more than one positive test, TargetSites_Rat_Female: hematopoietic system", "value": 614, "unit": "mg/kg/day"}]}, {"smiles": "O=C1C2CC=CCC2C(=O)N1SC(Cl)(Cl)C(Cl)Cl", "note": "(stereo not drawn)", "values": [{"measurement": "Potency", "setting": "TD50_Rat_Note: TD50 is harmonic mean of more than one positive test, greater than ten-fold variation among TD50 values for positive res, TargetSites_Rat_Female: kidney, liver, mammary gland", "value": 73.4, "unit": "mg/kg/day"}]}, {"smiles": "C[As](=O)(O)O", "values": [{"measurement": "outcome", "setting": "[1]", "value": "inactive; no positive results"}]}, {"smiles": "CN(N=O)C(=N)N[N+](=O)[O-]", "values": [{"measurement": "Potency", "setting": "TD50_Rat_Note: TD50 is harmonic mean of more than one positive test, greater than ten-fold variation among TD50 values for positive res, TargetSites_Rat_Female: small intestine, stomach", "value": 0.803, "unit": "mg/kg/day"}]}, {"smiles": "NC(=O)Nc1ccc([As](=O)(O)O)cc1", "values": [{"measurement": "outcome", "setting": "[1]", "value": "inactive; no positive results"}]}, {"smiles": "O[C@@H]([C@H](O)[C@H](O)CNCCCl)[C@H](O)CNCCCl", "values": [{"measurement": "outcome", "value": "inactive; no positive results"}]}, {"smiles": "C[As](C)(C)=O", "values": [{"measurement": "Potency", "value": 24.1, "unit": "mg/kg/day"}]}, {"smiles": "COP(=S)(OC)SCCNC(C)=O", "values": [{"measurement": "outcome", "setting": "[1]", "value": "inactive; no positive results"}]}]}
